Reference: US12029739B2, “SHP2 inhibitor and use thereof” (KANAPH THERAPEUTICS INC., priority 2021, dated 2024)

By UniProt entry, the sequences of proteins in these tests, tags left out.
UniProt Q06124, whole entry: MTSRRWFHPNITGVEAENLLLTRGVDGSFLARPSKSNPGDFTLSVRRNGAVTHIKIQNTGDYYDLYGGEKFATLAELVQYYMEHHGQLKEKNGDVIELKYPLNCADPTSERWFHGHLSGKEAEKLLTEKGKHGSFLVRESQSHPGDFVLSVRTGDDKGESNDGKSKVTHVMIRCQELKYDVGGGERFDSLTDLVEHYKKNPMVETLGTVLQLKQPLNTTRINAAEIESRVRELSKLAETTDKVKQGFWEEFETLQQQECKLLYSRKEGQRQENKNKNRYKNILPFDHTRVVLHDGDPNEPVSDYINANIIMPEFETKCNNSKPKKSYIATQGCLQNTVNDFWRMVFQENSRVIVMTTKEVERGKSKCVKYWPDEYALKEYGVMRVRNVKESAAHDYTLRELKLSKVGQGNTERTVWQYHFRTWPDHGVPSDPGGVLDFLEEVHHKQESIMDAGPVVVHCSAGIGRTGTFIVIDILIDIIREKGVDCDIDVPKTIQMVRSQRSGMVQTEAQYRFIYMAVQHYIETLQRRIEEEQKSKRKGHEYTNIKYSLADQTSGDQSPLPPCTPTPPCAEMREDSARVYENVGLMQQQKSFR

Target: T1, SHP2 (full length) (Homo sapiens, UniProt Q06124)
T1 construct: SHP2 (full length, diluted to 100 pM final concentration in reaction buffer, BPS bioscience, US); purchased BPS bioscience, US
Experiment: Phosphatase assay (PTPase assay) with DiFMUP substrate
Assay type: biochemical
Settings: IC50 (PTPase aS say, nM), SHP2 activated with SHP2 activating peptide; DiFMUP 80 μM, 2 hours; fluorescence

## Cc1nc2ccc(Sc3cnc(N4CCC(C)(CN)CC4)cn3)c(Cl)c2c(=O)n1Cc1cccc(S(=O)(=O)F)c1 [Example 21, 3-((6-((5-(4-(aminomethyl)-4-methylpiperidin-1-yl)pyrazin-2-yl)thio)-5-chloro-2methyl-4-oxoquinazolin-3(4H)-yl)methyl)benzenesulfonyl fluoride]
  IC50: 3 to 100 nM
